# Values quoted from earlier work as cited in US20140206737A1 (Beijing Zhongwei Shennong Chronic Disease Medical Research …, priority 2013, published 2014).
# Conditions: cited from earlier work
smiles,measurement,setting,value
"Cl.Clc1cccc(Cl)c1NC1=NCCN1 [clonidine hydrochloride, 2-(2,6-Dichloroanilino)-2-imidazoline hydrochloride]",solubility in chloroform,chloroform,very slightly soluble
same,solubility in ether,ether,practically insoluble
same,solubility in water or ethanol,water or ethanol,soluble
